In US20090099157A1, “TETRAHYDRO-PYRAZOLO-PYRIDINE THIOETHER MODULATORS OF CATHEPSIN S” (priority 2007, published 2009) one finds IC50 data, which are given here for 21 compounds.

Sequences of proteins named here, by UniProt entry; tags and fusion partners are left off. Residues count along the entry.
UniProt P25774, 115-331: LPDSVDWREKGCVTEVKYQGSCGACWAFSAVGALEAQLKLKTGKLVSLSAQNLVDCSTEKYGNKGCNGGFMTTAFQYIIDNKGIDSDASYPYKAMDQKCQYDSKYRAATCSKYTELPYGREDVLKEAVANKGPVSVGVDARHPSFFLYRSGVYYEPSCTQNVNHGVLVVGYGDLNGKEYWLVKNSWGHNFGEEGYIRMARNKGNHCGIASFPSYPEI

The structures appear in SMILES notation.

This test concerns the target Recombinant human cathepsin S (CatS) (Homo sapiens, UniProt P25774). Put plainly: biochemical.

As to `CS(=O)(=O)N1CCc2c(c(-c3ccc(C(F)(F)F)c(SCCN4CCCC4)c3)nn2CC(O)CN2CCC(N3CCOCC3)CC2)C1` (stereo not drawn) [Example 646, 1-[5-(Methylsulfonyl)-3-{3-[(2-pyrrolidin-1-ylethyl)sulfanyl]-4-(trifluoromethyl)phenyl}-4,5,6,7-tetrahydro-1H-pyrazolo[4,3-c]pyridin-1-yl]-3-(4-morpholin-4-ylpiperidin-1-yl)propan-2-ol], the IC50 was 360 nM.

As for `NC(=O)C(=O)N1CCc2c(c(-c3ccc(C(F)(F)F)c(SCCN4CCCC4)c3)nn2C[C@@H](O)CN2CCC(N3C[C@H](O)CC3=O)CC2)C1` [Example 663, 2-(1-[(2S)-2-Hydroxy-3-{4-[(4R)-4-hydroxy-2-oxopyrrolidin-1-yl]piperidin-1-yl}propyl]-3-{3-[(2-pyrrolidin-1-ylethyl)sulfanyl]-4-(trifluoromethyl)phenyl}-1,4,6,7-tetrahydro-5H-pyrazolo[4,3-c]pyridin-5-yl)-2-oxoacetamide], the 50% inhibitory concentration (IC50) is 35 nM.

For the compound `CS(=O)(=O)N1CCc2c(c(-c3ccc(C(F)(F)F)c(SCC(=O)N4CCC(Cc5ccccc5)CC4)c3)nn2CCCN2CCC(N3CCCC3=O)CC2)C1` [Example 104, 1-{1-[3-(3-{3-[2-(4-Benzyl-piperidin-1-yl)-2-oxo-ethylsulfanyl]-4-trifluoromethyl-phenyl}-5-methanesulfonyl-4,5,6,7-tetrahydro-pyrazolo[4,3-c]pyridin-1-yl)-propyl]-piperidin-4-yl}-pyrrolidin-2-one], the half-maximal inhibitory concentration (IC50) was determined as 330 nM. With `CCCS(=O)(=O)N1CCc2c(c(-c3ccc(C(F)(F)F)c(SCCN4CCC(F)CC4)c3)nn2C[C@@H](O)CN2CCCCC2)C1` [Example 557, (2S)-1-{3-[3-{[2-(4-Fluoropiperidin-1-yl)ethyl]sulfanyl}-4-(trifluoromethyl)phenyl]-5-(propylsulfonyl)-4,5,6,7-tetrahydro-1H-pyrazolo[4,3-c]pyridin-1-yl}-3-piperidin-1-ylpropan-2-ol], the IC50 is 300 nM. For `CS(=O)(=O)N1CCc2c(c(-c3ccc(C(F)(F)F)c(SCC(=O)N4CCC5CCCCC5C4)c3)nn2CCCN2CCC(N3CCCC3=O)CC2)C1` (stereo not drawn) [Example 80, 1-{1-[3-(5-Methanesulfonyl-3-{3-[2-(octahydro-isoquinolin-2-yl)-2-oxo-ethylsulfanyl]-4-trifluoromethyl-phenyl}-4,5,6,7-tetrahydro-pyrazolo[4,3-c]pyridin-1-yl)-propyl]-piperidin-4-yl}-pyrrolidin-2-one], the IC50 amounted to 180 nM. Regarding `O=C(CSc1cc(-c2nn(CC(O)CN3CCC(c4ccccn4)CC3)c3c2CNCC3)ccc1C(F)(F)F)N1CCCC1` (stereo not drawn) [Example 271, 1-(3-{3-[(2-Oxo-2-pyrrolidin-1-ylethyl)sulfanyl]-4-(trifluoromethyl)phenyl}-4,5,6,7-tetrahydro-1H-pyrazolo[4,3-c]pyridin-1-yl)-3-(4-pyridin-2-ylpiperidin-1-yl)propan-2-ol], the IC50 came to 60 nM.

On to `CN(C)C1CCN(CC(O)Cn2nc(-c3ccc(C(F)(F)F)c(SCCN4CCCCC4)c3)c3c2CCN(S(C)(=O)=O)C3)CC1` (stereo not drawn) [Example 162, 1-[4-(Dimethylamino)piperidin-1-yl]-3-[5-(methylsulfonyl)-3-{3-[(2-piperidin-1-ylethyl)sulfanyl]-4-(trifluoromethyl)phenyl}-4,5,6,7-tetrahydro-1H-pyrazolo[4,3-c]pyridin-1-yl]propan-2-ol], for which the IC50 is 710 nM.

In the case of `OC(CN1CCN(c2ccccc2)CC1)Cn1nc(-c2ccc(C(F)(F)F)c(SCCN3CCC(F)CC3)c2)c2c1CCNC2` (stereo not drawn) [Example 399, 1-{3-[3-{[2-(4-Fluoropiperidin-1-yl)ethyl]sulfanyl}-4-(trifluoromethyl)phenyl]-4,5,6,7-tetrahydro-1H-pyrazolo[4,3-c]pyridin-1-yl}-3-(4-phenylpiperazin-1-yl)propan-2-ol], the IC50 worked out at 410 nM.

For the compound `CS(=O)(=O)N1CCc2c(c(-c3ccc(C(F)(F)F)c(SCC(=O)N4CCOCC4)c3)nn2CC(O)CN2CCN(c3ccccc3F)CC2)C1` (stereo not drawn) [Example 790, 1-[4-(2-Fluorophenyl)piperazin-1-yl]-3-[5-(methylsulfonyl)-3-{3-[(2-morpholin-4-yl-2-oxoethyl)sulfanyl]-4-(trifluoromethyl)phenyl}-4,5,6,7-tetrahydro-1H-pyrazolo[4,3-c]pyridin-1-yl]propan-2-ol], the half-maximal inhibitory concentration (IC50) worked out at 10 nM. `CCN(CC)C(=O)N1CCc2c(c(-c3ccc(C(F)(F)F)c(SCCN4CCC(F)CC4)c3)nn2C[C@@H](O)CN2CCCCC2)C1` [Example 525, N,N-Diethyl-3-[3-{[2-(4-fluoropiperidin-1-yl)ethyl]sulfanyl}-4-(trifluoromethyl)phenyl]-1-[(2S)-2-hydroxy-3-piperidin-1-ylpropyl]-1,4,6,7-tetrahydro-5H-pyrazolo[4,3-c]pyridine-5-carboxamide]: the half-maximal inhibitory concentration (IC50) worked out at 910 nM.

Turning to `CS(=O)(=O)N1CCc2c(c(-c3ccc(C(F)(F)F)c(SCCN4CCC4)c3)nn2CCCN2CCCCC2)C1` [Example 306, 3-{3-[(2-Azetidin-1-ylethyl)sulfanyl]-4-(trifluoromethyl)phenyl}-5-(methylsulfonyl)-1-(3-piperidin-1-ylpropyl)-4,5,6,7-tetrahydro-1H-pyrazolo[4,3-c]pyridine], the IC50 stood at 1260 nM. The result for `CS(=O)(=O)N1CCc2c(c(-c3ccc(C(F)(F)F)c(SCCN4CCC(F)(F)C4)c3)nn2CC(O)CN2CCC(C(=O)N3CCCC3)CC2)C1` (stereo not drawn) [Example 825, 1-{3-[3-{[2-(3,3-Difluoropyrrolidin-1-yl)ethyl]sulfanyl}-4-(trifluoromethyl)phenyl]-5-(methylsulfonyl)-4,5,6,7-tetrahydro-1H-pyrazolo[4,3-c]pyridin-1-yl}-3-[4-(pyrrolidin-1-ylcarbonyl)piperidin-1-yl]propan-2-ol] reads 65 nM; that for `CS(=O)(=O)N1CCc2c(c(-c3ccc(C(F)(F)F)c(SCCN4CCOCC4)c3)nn2CC(O)CN2CCC(N3CCCC3)CC2)C1` (stereo not drawn) [Example 644, 1-[5-(Methylsulfonyl)-3-{3-[(2-morpholin-4-ylethyl)sulfanyl]-4-(trifluoromethyl)phenyl}-4,5,6,7-tetrahydro-1H-pyrazolo[4,3-c]pyridin-1-yl]-3-(4-pyrrolidin-1-ylpiperidin-1-yl)propan-2-ol], 630 nM. For `CS(=O)(=O)N1CCc2c(c(-c3ccc(C(F)(F)F)c(SCCN4CCC(F)CC4)c3)nn2CC(O)CN2CCN(c3ccccc3C#N)CC2)C1` (stereo not drawn) [Example 829, 2-[4-(3-{3-[3-{[2-(4-Fluoropiperidin-1-yl)ethyl]sulfanyl}-4-(trifluoromethyl)phenyl]-5-(methylsulfonyl)-4,5,6,7-tetrahydro-1H-pyrazolo[4,3-c]pyridin-1-yl}-2-hydroxypropyl)piperazin-1-yl]benzonitrile], the concentration for half-maximal inhibition (IC50) amounted to 10 nM. The result for `CS(=O)(=O)N1CCc2c(c(-c3ccc(C(F)(F)F)c(SCCN4CCOCC4)c3)nn2CC(O)CN2CCCC(F)(F)C2)C1` (stereo not drawn) [Example 518, 1-(3,3-Difluoropiperidin-1-yl)-3-[5-(methylsulfonyl)-3-{3-[(2-morpholin-4-ylethyl)sulfanyl]-4-(trifluoromethyl)phenyl}-4,5,6,7-tetrahydro-1H-pyrazolo[4,3-c]pyridin-1-yl]propan-2-ol] reads 1360 nM. In the case of `CS(=O)(=O)N1CCc2c(c(-c3ccc(C(F)(F)F)c(SCCN4CCCCC4)c3)nn2CC(O)CN2CCC(N3CCCC3=O)CC2)C1` (stereo not drawn) [Example 157, 1-(1-{2-Hydroxy-3-[5-(methylsulfonyl)-3-{3-[(2-piperidin-1-ylethyl)sulfanyl]-4-(trifluoromethyl)phenyl}-4,5,6,7-tetrahydro-1H-pyrazolo[4,3-c]pyridin-1-yl]propyl}piperidin-4-yl)pyrrolidin-2-one], the IC50 was 40 nM. Next, `CC(=O)N1CCN(CCSc2cc(-c3nn(CC(O)CN4CCC(c5ccccn5)CC4)c4c3CN(S(C)(=O)=O)CC4)ccc2C(F)(F)F)CC1` (stereo not drawn) [Example 186, 1-{3-[3-{[2-(4-Acetylpiperazin-1-yl)ethyl]sulfanyl}-4-(trifluoromethyl)phenyl]-5-(methylsulfonyl)-4,5,6,7-tetrahydro-1H-pyrazolo[4,3-c]pyridin-1-yl}-3-(4-pyridin-2-ylpiperidin-1-yl)propan-2-ol]: 1380 nM; `CS(=O)(=O)NC1CCN(CC(O)Cn2nc(-c3ccc(C(F)(F)F)c(SCCN4CCCC(O)C4)c3)c3c2CCN(C(=O)CO)C3)CC1` (stereo not drawn) [Example 700, N-[1-(2-Hydroxy-3-{5-(hydroxyacetyl)-3-[3-{[2-(3-hydroxypiperidin-1-yl)ethyl]sulfanyl}-4-(trifluoromethyl)phenyl]-4,5,6,7-tetrahydro-1H-pyrazolo[4,3-c]pyridin-1-yl}propyl)piperidin-4-yl]methanesulfonamide]: 150 nM; `CS(=O)(=O)N1CCc2c(c(-c3ccc(C(F)(F)F)c(SCCN4CCCC(F)C4)c3)nn2C[C@@H](O)CN2CCC(c3ccccn3)CC2)C1` (stereo partly drawn) [Example 207, (2S)-1-{3-[3-{[2-(3-Fluoropiperidin-1-yl)ethyl]sulfanyl}-4-(trifluoromethyl)phenyl]-5-(methylsulfonyl)-4,5,6,7-tetrahydro-1H-pyrazolo[4,3-c]pyridin-1-yl}-3-(4-pyridin-2-ylpiperidin-1-yl)propan-2-ol]: 10 nM. In the case of `CS(=O)(=O)N1CCc2c(c(-c3ccc(C(F)(F)F)c(SCC(=O)N4CC[C@@H](O)C4)c3)nn2CC(O)CN2CCCCC2)C1` (stereo partly drawn) [Example 390, (3R)-1-[({5-[1-(2-Hydroxy-3-piperidin-1-ylpropyl)-5-(methylsulfonyl)-4,5,6,7-tetrahydro-1H-pyrazolo[4,3-c]pyridin-3-yl]-2-(trifluoromethyl)phenyl}sulfanyl)acetyl]pyrrolidin-3-ol], the IC50 amounted to 280 nM. Next, `CS(=O)(=O)N1CCc2c(c(-c3ccc(C(F)(F)F)c(SCCN4CCOCC4)c3)nn2CC(O)CN2CCOCC2)C1` (stereo not drawn) [Example 179, 1-[5-(Methylsulfonyl)-3-{3-[(2-morpholin-4-ylethyl)sulfanyl]-4-(trifluoromethyl)phenyl}-4,5,6,7-tetrahydro-1H-pyrazolo[4,3-c]pyridin-1-yl]-3-morpholin-4-ylpropan-2-ol]: 840 nM.
